The chains behind the UniProt entries cited, without tags or fusion partners. A line that says so, or that is headed by a name, gives the form on record, which may keep a tag or linker.
UniProt P15692, other isoform, or with tags, fused parts or gaps limits assumed: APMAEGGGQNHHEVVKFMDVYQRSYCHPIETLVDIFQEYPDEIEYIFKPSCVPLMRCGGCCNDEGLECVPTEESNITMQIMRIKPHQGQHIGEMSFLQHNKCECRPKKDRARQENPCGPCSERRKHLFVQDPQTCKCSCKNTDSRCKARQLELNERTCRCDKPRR

According to patent publication CN102875676A:

Key:
[1] = target: 重组人VEGF (recombinant human VEGF, VEGF-A) (human) (UniProt P15692); assay: Friguet method, full-length antibody
[2] = target: 重组人VEGF (recombinant human VEGF, VEGF-A) (human) (UniProt P15692); assay: Friguet method (solution equilibrium with human VEGF, ELISA of free antibody on immobilised VEGF), Fab
[3] = target: 重组人VEGF (recombinant human VEGF, VEGF-A) (human) (UniProt P15692); assay: cell-based or functional assay

| Substance | Kd [1] [nM] | Kd [2] [nM] | ED50, inhibition of VEGF-induced growth of bovine adrenal cortex capillary endothelial cells (MTT) [3] [µg/mL] |
| --- | --- | --- | --- |
| Avastin (自备), full-length form of Fab-12 (antibody) | 1.51 | – | – |
| Fab-12 (自备) | – | 1.35 | 0.179 |
